Experimental data reported in US9139795B2, “Biodegradable lubricant composition” (IDEMITSU KOSAN CO., LTD., priority 2009, dated 2015).

Assay: Biodegradability, modified MITI test method (OECD301C)
Conditions: base oil ester alone

**Q.** With di(pentaerythritol)oleate as the substance, how does the Biodegradability read?
**A.** Its Biodegradability is 62.0%.
